# Literature values, collected in paper PMC5995566.
# Target: Annexin I peptide (Homo sapiens) (UniProt P04083)
# Settings: cited from earlier work
substance,measurement,value
S100A6 (from UniProt P06703),Kd,13 µM
